Measurements taken from publication PMC9217576, “Urease and α-Chymotrypsin Inhibitory Activities and Molecular Docking Studies of Alkaloids Isolated from Medicinal Plant Isatis minima Bunge” (Evidence-based Complementary and Alternative Medicine : eCAM, 2022).

Biological target: Jack bean urease (Canavalia ensiformis, UniProt P07374)
Assay: In vitro urease inhibition assay (indophenol method)
Type: biochemical

With `O=C1/C(=c2\c3ccccc3n3c(=O)c4ccccc4nc23)Nc2ccccc21` [Candidine] the “inhibitory activity against Jack bean urease (in words)” value was “significant inhibitory activity” and the IC50 (read-out: Urease IC50 ± SEM (Jack bean urease), SEM of five determinations, pH 6.8, 30°C) was 68.2 µM.
